What all share (assay type): cell-based
In assay [1] the target is Epidermal growth factor receptor (Homo sapiens) (UniProt P00533). The assay is described as follows: Upregulation of EGFR phosphorylation at Ser1070 residue in human HCC cells at 30 uM by KEGG analysis relative to control.
Assay [2] shares this target. Nature of the assay: Upregulation of EGFR phosphorylation at Thr693 residue in human HCC cells at 30 uM by KEGG analysis relative to control.
The target is the same in assay [3]. The assay is described as follows: Upregulation of EGFR phosphorylation at Tyr1172 residue in human HCC cells at 30 uM by KEGG analysis relative to control.
Assay [4] shares this target. The assay is described as follows: Upregulation of EGFR phosphorylation at Tyr1197 residue in human HCC cells at 30 uM by KEGG analysis relative to control.
In assay [5] the target is Vascular endothelial growth factor receptor 2 (Homo sapiens) (UniProt P35968). The assay is described as follows: Upregulation of VEGFR2 phosphorylation at Tyr1214 residue in human HCC cells at 30 uM by KEGG analysis relative to control.
Assay [6] shares this target. The assay is described as follows: Upregulation of VEGFR2 phosphorylation at Tyr951 residue in human HCC cells at 30 uM by KEGG analysis relative to control.

Amino acid sequences for entries named in this document (tags omitted).
UniProt P35968, whole entry: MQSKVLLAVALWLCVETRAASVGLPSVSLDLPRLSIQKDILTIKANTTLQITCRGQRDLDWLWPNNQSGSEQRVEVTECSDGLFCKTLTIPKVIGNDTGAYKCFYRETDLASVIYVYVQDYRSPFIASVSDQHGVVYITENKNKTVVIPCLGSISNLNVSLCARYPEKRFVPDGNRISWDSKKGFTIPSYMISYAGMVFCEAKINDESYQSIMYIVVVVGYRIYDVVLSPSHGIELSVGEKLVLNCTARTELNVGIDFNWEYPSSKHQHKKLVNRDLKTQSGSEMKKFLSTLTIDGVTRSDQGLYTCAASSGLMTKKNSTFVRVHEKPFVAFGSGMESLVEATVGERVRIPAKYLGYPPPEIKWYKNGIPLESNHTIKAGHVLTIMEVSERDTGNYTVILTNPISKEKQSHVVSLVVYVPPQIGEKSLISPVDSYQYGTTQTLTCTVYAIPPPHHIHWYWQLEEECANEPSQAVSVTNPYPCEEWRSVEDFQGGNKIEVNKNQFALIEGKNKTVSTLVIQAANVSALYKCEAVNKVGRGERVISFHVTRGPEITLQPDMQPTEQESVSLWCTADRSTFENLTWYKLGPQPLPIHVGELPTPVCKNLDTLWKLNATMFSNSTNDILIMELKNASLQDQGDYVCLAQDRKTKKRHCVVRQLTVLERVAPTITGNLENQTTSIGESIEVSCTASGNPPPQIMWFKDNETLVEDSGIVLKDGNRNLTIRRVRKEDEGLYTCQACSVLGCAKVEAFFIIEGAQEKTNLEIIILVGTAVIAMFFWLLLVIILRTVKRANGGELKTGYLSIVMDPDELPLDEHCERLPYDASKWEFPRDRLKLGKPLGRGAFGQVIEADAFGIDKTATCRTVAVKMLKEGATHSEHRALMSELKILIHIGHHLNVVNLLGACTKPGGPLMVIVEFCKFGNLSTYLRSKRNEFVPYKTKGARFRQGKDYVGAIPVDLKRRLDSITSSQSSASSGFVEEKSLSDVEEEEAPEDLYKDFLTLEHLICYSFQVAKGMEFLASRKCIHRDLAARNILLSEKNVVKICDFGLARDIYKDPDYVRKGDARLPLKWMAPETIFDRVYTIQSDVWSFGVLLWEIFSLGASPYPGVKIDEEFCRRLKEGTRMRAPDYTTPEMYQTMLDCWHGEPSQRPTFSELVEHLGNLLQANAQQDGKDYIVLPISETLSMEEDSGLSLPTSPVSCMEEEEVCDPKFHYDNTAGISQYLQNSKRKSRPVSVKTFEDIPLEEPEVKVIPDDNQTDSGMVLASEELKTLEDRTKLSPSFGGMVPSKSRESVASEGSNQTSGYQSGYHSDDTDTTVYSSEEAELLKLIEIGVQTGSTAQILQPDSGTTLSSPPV

Each structure is given as a SMILES string.

In the case of `CNC(=O)c1ccccc1Nc1nc(Nc2cccc(NC(C)=O)c2)nc2[nH]cc(F)c12`, the fold change (FC) in assay [1] stood at 3.94; in assay [2] it was 2.97; in assay [3] it was 2.02; in assay [4], 2.21; in assay [5], 2.67; in assay [6], 2.63.

For the origin of these results see ChEMBL document CHEMBL4831494, “Synthesis and evaluation of FAK inhibitors with a 5-fluoro-7H-pyrrolo[2,3-d]pyrimidine scaffold as anti-hepatocellular carcinoma agents” (Eur J Med Chem, 2021).
